Tested on: Corn

CCOP(=S)(CC)Sc1ccccc1 (centres unmarked)
effect on corn before application of the herbicide (Examples 8-11, biocides and safeners PPI): slight early stunting and leaf malformation

5-Oxazolecarboxylic acid, 2-<(2,2-dimethylethyl)amino>-4-(trifluoro-methyl)-, ethyl ester
antidote activity (COUNTER with BEACON, PURSUIT (POE) or XRD-498 (PPI), Tables 29-37): active safeners

— patent EP0565593B1, “REDUCING PESTICIDAL INTERACTIONS IN CROPS” (priority 1990, dated 1992)
